According to paper PMC10681007, “Targeted Degradation of XIAP is Sufficient and Specific to Induce Apoptosis in MYCN-overexpressing High-risk Neuroblastoma” (Cancer Research Communications, 2023):
Values joined by “and” are separate entries in the source; they are usually repeats but may differ in a detail not shown here. Equal values may be shown once. Read-outs that look alike come from different tables or passages of the source.

Chains of the proteins cited; added tags and fusions are not shown.
UniProt P98170, whole entry: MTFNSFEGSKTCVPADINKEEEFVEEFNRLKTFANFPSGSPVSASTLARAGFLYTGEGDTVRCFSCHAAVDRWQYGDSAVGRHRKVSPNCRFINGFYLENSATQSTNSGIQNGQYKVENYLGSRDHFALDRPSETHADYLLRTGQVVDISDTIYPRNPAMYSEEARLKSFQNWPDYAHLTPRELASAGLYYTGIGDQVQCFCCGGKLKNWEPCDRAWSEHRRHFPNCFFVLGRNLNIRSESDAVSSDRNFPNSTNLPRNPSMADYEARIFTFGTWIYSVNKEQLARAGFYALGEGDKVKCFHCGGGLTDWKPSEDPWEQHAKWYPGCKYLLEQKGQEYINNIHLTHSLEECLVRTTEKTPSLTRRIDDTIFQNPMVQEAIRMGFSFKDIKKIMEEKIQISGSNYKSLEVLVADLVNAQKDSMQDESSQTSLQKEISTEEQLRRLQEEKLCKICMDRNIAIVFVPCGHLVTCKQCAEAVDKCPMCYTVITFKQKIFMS

Assays:
[1] = test system: THLE3 (liver origin); test: RealTime-Glo MT cell viability assay, noncancerous normal cells; format: cell-based, Human
[2] = test system: HS5 (bone marrow origin); test: as above; format: cell-based, Human
[3] = test system: MYCN-amplified neuroblastoma PDX; test: Survival and tumor analysis in orthotopic MYCN-amplified neuroblastoma PDX; format: in vivo, NOD/SCID mice
Protocol: Neuroblastoma patient-derived xenografts (PDX) were generated from MYCN-amplified tumor samples of a patient with stage III high-risk undifferentiated neuroblastoma recruited with waiver of written parental consent and child assent, under SingHealth Duke NUS CIRB protocol 2014/2079 (Modeling, Analysis, and Translational Therapeutics for Tumors of Childhood), and implanted orthotopically in the retroperitoneal space of NOD/SCID mice. All experiments were performed under the approval of the Institutional Animal Care and Use Committee (SingHealth Duke NUS IACUC #1066). Histologic morphology of PDX tumors were compared with the original patient tumors at each passage to establish their congruence, and also confirmed with supporting IHC stains with neuroblastoma markers PHOX2B, TH and GD2 Synthase.
Tumor samples collected from neuroblastoma PDXs were infected with luciferase lentivirus. Tumor analysis was performed by intraperitoneal injection of D-luciferin solution (150 mg/kg; PerkinElmer) into the mice and imaged with an IVIS spectrum. Bioluminescent signals were then quantified using Living Imaging 4.4 (Caliper Life Sciences). After 4 weeks of tumor implantation into retroperitoneal space of mice, tumor-bearing mice were randomly assigned to receive either vehicle (DMSO; 1 mL/kg) or XIAP-specific antagonist A4 (10 mg/kg; n = 9 per group). All agents were administered by intraperitoneal injection twice weekly for consecutive 3 weeks. General health state of the mice were monitored weekly and were euthanized upon reaching humane endpoints. Survival data were recorded and Kaplan–Meier curves were plotted using GraphPad Prism software.
FIGURE 4 Treatment with XIAP-specific antagonist A4 prolongs and improves overall survival in high-risk neuroblastoma PDXs. A, Top, Immunoblot analysis of XIAP, cleaved PARP and cleaved caspase-3 expression in tumors harvested from treated neuroblastoma PDXs. Neuroblastoma PDXs were treated with 10 mg/kg A4 via intraperitoneal injection. Tumors were harvested over the following time courses of 0, 0.5, 1, 2, 4, 24, and 48 hours after dosing. β-actin is used as internal control. Bottom, Graphical representation of densitometry ratio for XIAP expression normalized to β-actin in tumors harvested from neuroblastoma PDXs as described in A (Supplementary Data S2). Values were expressed as mean ± SD with n = 3/timepoint. B, Kaplan–Meier survival plot of MYCN-amplified neuroblastoma PDXs (n = 9/treatment group). […] The mice were monitored over a period of 7 weeks, including 4 weeks of stabilizing implantation and subsequent 3 weeks of treatment period. log-rank (Mantel–Cox test) derived from Kaplan–Meier survival plot was used for statistical comparisons between groups with *, P < 0.05. […]

[4] = target: T1, XIAP (Homo sapiens, UniProt P98170); test: XIAP expression in tumors harvested from A4-treated PDXs (immunoblot densitometry); conditions: for XIAP/B-actin relative to 0 h, single sets M1, M2, M3 / XIAP/B-actin relative to 0 h, AVG: tumor; for XIAP/B-actin relative to 0 h, AVG: n = 3
Protocol: FIGURE 4 Treatment with XIAP-specific antagonist A4 prolongs and improves overall survival in high-risk neuroblastoma PDXs. A, Top, Immunoblot analysis of XIAP, cleaved PARP and cleaved caspase-3 expression in tumors harvested from treated neuroblastoma PDXs. Neuroblastoma PDXs were treated with 10 mg/kg A4 via intraperitoneal injection. Tumors were harvested over the following time courses of 0, 0.5, 1, 2, 4, 24, and 48 hours after dosing. β-actin is used as internal control. Bottom, Graphical representation of densitometry ratio for XIAP expression normalized to β-actin in tumors harvested from neuroblastoma PDXs as described in A (Supplementary Data S2). Values were expressed as mean ± SD with n = 3/timepoint. B, Kaplan–Meier survival plot of MYCN-amplified neuroblastoma PDXs (n = 9/treatment group). Blue line indicates percentage survival of vehicle-treated mice (control) and green line is the percentage survival of A4-treated mice (10 mg/kg). The mice were monitored over a period of 7 weeks, including 4 weeks of stabilizing implantation and subsequent 3 weeks of treatment period. log-rank (Mantel–Cox test) derived from Kaplan–Meier survival plot was used for statistical comparisons between groups with *, P < 0.05. C, Bioluminescence imaging of tumor growth in two representative neuroblastoma PDXs.
Whole cell lysates harvested were lysed in EBC buffer (pH 8.0 of 50 mM Tris, 0.5% NP-40, 120 mM sodium chloride) containing protease inhibitors and protein concentration were quantified using the Bradford assay (Thermo Fisher Scientific). 60 -100 µg of proteins were separated by 12% gel SDS-PAGE followed by a wet-transfer onto PVDF membranes (BioRad). Membranes were probed overnight at 4°C with specific primary antibodies as stated in key resources table. Detection was performed using X-ray film with enhanced chemiluminescence method (Merck) Densitometric analysis of the blots for quantification of protein expression ratios was performed using ImageJ software.
(§1) The testing dose of A4 10 mg/kg was injected intraperitoneally into the orthotopic neuroblastoma PDXs. 150-200 μL of blood was taken from mice via cardiac puncture and tumors were harvested over the following time courses of 0, 0.5, 1, 2, 4, 24 and 48 hours post-dosing (n=3/time point). The concentrations of A4 in mouse plasma and tumor samples were determined and validated by a highly sensitive liquid chromatography tandem mass spectrometry (LC–MS/MS) method with multiple reaction monitoring (MRM) mode. The LC-MS/MS system consisted of Agilent 1290 ultra high-performance liquid chromatography (UHPLC) connected in tandem to Sciex QTRAP 5500 mass spectrometer system. Chromatographic separation was optimized using a liquid–liquid extraction and a reversed phase separation on a Kinetex F5 column (100 mm x 2.1 mm, 2.6 μm) with isocratic elution. Ethyl indole-2-carboxylate was used as the internal standard (IS). MRM transitions 441.2/189.0 (A4) and 190.1/114.1 (IS) were monitored with a dwell time of 300 msec and analyst 1.6.2 software (Sciex) was used to quantify the peaks with 1/x2 weighted linear regression.

[5] = target: T1, XIAP; test: NanoBRET ubiquitination assay; format: cell-based; conditions: neuroblastoma cells with endogenous luminescent-tagged XIAP
[6] = Pharmacokinetics of A4 in neuroblastoma PDX mice (LC-MS/MS)
Protocol: Neuroblastoma PDXs were treated with 10 mg/kg A4 via intraperitoneal injection. 150-200 μL of blood was taken from each mouse via cardiac puncture and tumors were harvested over the following time courses of 0, 0.5-, 1-, 2-, 4-, 24- and 48-hours post-dosing (n=3/time point). The concentrations of A4 in mice plasma were determined by LCMS/ MS in MRM positive mode.
as §1

[7] = 10 mg/kg i.p. twice weekly, 3 weeks, n = 9

COC(=O)c1[nH]c2ccc(Cl)cc2c1NC(=O)CN1CCN(Cc2ccccc2)CC1
IC50 ([1]; THLE3, 24 hours): 26.8 µM
IC50 ([1]; THLE3, 48 hours): 16 µM
IC50 ([1]; THLE3, 72 hours): 12.6 µM
IC50 ([2]; HS5, 24 hours): 17.6 µM
IC50 ([2]; HS5, 48 hours): 19.3 µM
IC50 ([2]; HS5, 72 hours): 16.6 µM
tumor size versus vehicle (bioluminescence imaging) ([3]; 10 mg/kg i.p. twice weekly, 3 weeks): no observable difference in tumor size
mice alive at the end of the treatment period [3, 7]: more than 50%
overall survival (Kaplan–Meier) versus vehicle [3, 7]: significantly longer overall survival
cleaved caspase 3 and TUNEL staining of tumors ([3]; 10 mg/kg, n = 5 tumors per group): increased positive staining for cleaved caspase 3 and TUNEL IHC
XIAP tissue expression and apoptosis in PDX tumors ([4]; 10 mg/kg, serial timepoints over 48 hours): eventual reduction of XIAP tissue expression and increased apoptosis
XIAP/B-actin relative to 0 h, single sets M1, M2, M3 ([4]; 0.5 h after 10 mg/kg i.p.): 1.7198 and 1.002 and 1.168
XIAP/B-actin relative to 0 h, AVG ([4]; 0.5 h after 10 mg/kg i.p.): 1.297
XIAP/B-actin relative to 0 h, single sets M1, M2, M3 ([4]; 1 h after 10 mg/kg i.p.): 0.9492 and 1.25 and 1.102
XIAP/B-actin relative to 0 h, AVG ([4]; 1 h after 10 mg/kg i.p.): 1.1
XIAP/B-actin relative to 0 h, AVG ([4]; 2 h after 10 mg/kg i.p.): 1.145
XIAP/B-actin relative to 0 h, AVG ([4]; 4 h after 10 mg/kg i.p.): 0.6234
XIAP/B-actin relative to 0 h, single sets M1, M2, M3 ([4]; 24 h after 10 mg/kg i.p.): 0.8473 and 1.329 and 0.8358
XIAP/B-actin relative to 0 h, AVG ([4]; 24 h after 10 mg/kg i.p.): 1.004
XIAP/B-actin relative to 0 h, single sets M1, M2, M3 ([4]; 48 h after 10 mg/kg i.p.): 0.7395 and 0.6136 and 0.6311
XIAP/B-actin relative to 0 h, AVG ([4]; 48 h after 10 mg/kg i.p.): 0.6614
binding of ubiquitin to XIAP (BRET ratio) [5]: clear dose-dependent increase in BRET ratio
Mean AUC0→48 (model), mouse plasma ([6]; 10 mg/kg intraperitoneal): 3.651 µM·h
Mean AUC0→48 (model), mouse tumor ([6]; 10 mg/kg intraperitoneal): 24.947 µM·h
Cmax ([6]; read-out: Cmax, mouse plasma, 10 mg/kg intraperitoneal): 600 nM
Cmax ([6]; read-out: Cmax, mouse tumor, 10 mg/kg intraperitoneal): 4000 nM
Cmax ([6]; read-out: maximum modeled concentration (Cmax) in mouse plasma, 10 mg/kg intraperitoneal): 600 nM
Cmax ([6]; read-out: maximum modeled concentration (Cmax) in tumor, 10 mg/kg intraperitoneal): 4000 nM
